For one molecule, Ki results are on record in ChEMBL document CHEMBL1125692 (J Med Chem, 1991).

Sequences of proteins named here, by UniProt entry; tags and fusion partners are left off.
UniProt P61169, whole entry: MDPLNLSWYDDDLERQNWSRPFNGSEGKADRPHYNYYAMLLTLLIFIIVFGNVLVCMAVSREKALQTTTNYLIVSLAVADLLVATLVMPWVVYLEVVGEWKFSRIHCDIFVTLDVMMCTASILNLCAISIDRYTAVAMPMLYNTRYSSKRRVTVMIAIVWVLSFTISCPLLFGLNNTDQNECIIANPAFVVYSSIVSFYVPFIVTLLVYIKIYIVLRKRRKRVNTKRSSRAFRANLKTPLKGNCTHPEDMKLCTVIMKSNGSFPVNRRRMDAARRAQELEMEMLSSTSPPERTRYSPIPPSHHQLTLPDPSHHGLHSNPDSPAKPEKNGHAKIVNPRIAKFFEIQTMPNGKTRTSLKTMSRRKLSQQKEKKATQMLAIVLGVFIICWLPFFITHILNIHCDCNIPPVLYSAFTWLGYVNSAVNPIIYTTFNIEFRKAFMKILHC

This assay deals with D(2) dopamine receptor (Rattus norvegicus, UniProt P61169). The experiment in a line: Displacement of [3H]- spiperone from dopamine receptor D2 of striatal membranes without sodium chloride.

SMILES strings stand for the structures.

What is called Ki is the equilibrium dissociation constant of an inhibitor or competing ligand from its target. In turn, `CCN1CCC[C@H]1CNC(=O)c1cc(I)cc(OC)c1OC` [EPIDEPRIDE] showed a Ki of 0.66 nM.
